US20230332181A1

Assays:
[1] = target: SAd36 fiber-T4 fibritin-SpT (FFSpT) on the SAd36.FFSpT virus (simian (chimpanzee) adenovirus species E serotype 36; bacteriophage T4) (UniProt P10104); assay: cell-based or functional assay
[2] = target: SAd36 hexon with hypervariable region 5 replaced by SpT (HSpT) on the SAd36.HSpT virus (simian (chimpanzee) adenovirus species E serotype 36); assay: cell-based or functional assay
[3] = target: wild-type SAd36 viral proteins; assay: cell-based or functional assay
[4] = target: SAd36 fiber-T4 fibritin-SpT (FFSpT) on the SAd36.FFSpT virus (simian (chimpanzee) adenovirus species E serotype 36; bacteriophage T4) (UniProt P10104); assay: comparison of the two conjugated viruses
[5] = target: SAd36 fiber-T4 fibritin-SpT (FFSpT) on the SAd36.FFSpT virus (simian (chimpanzee) adenovirus species E serotype 36; bacteriophage T4) (UniProt P10104); assay: virus incubated with Cas9SpC at 37° C. for 2 h, SDS-PAGE with Coomassie staining
[6] = target: SAd36 hexon with hypervariable region 5 replaced by SpT (HSpT) on the SAd36.HSpT virus (simian (chimpanzee) adenovirus species E serotype 36); assay: as above

3×NLS_SpCas9_linker SpC_6×His (from UniProt Q99ZW2 1-1368) (enzyme)
dual-edited (tdTomato-positive) mAi9 cells on day 4, fluorescence microscopy [1]: 23.9%
dual-edited (tdTomato-positive) mAi9 cells on day 4, fluorescence microscopy [2]: 27.9%
dual-edited (tdTomato-positive) mAi9 cells on day 4, fluorescence microscopy [3]: 0.5%
amount of Cas9SpC on the FFSpT virus against the HSpT virus [4]: 10 times less
FFSpT sites on the virion conjugated (sites per virion) [5]: 36
fraction of the 720 HSpT sites converted to the Cas9SpC-conjugate form (fraction of the 720 HSpT sites) [6]: 0.5
